Source: ChEMBL document CHEMBL4428133, “Tyrosyl-DNA phosphodiesterase inhibitors: Progress and potential” (Bioorg Med Chem, 2016)

Chains of the proteins cited; added tags and fusions are not shown.
UniProt Q9NUW8, whole entry: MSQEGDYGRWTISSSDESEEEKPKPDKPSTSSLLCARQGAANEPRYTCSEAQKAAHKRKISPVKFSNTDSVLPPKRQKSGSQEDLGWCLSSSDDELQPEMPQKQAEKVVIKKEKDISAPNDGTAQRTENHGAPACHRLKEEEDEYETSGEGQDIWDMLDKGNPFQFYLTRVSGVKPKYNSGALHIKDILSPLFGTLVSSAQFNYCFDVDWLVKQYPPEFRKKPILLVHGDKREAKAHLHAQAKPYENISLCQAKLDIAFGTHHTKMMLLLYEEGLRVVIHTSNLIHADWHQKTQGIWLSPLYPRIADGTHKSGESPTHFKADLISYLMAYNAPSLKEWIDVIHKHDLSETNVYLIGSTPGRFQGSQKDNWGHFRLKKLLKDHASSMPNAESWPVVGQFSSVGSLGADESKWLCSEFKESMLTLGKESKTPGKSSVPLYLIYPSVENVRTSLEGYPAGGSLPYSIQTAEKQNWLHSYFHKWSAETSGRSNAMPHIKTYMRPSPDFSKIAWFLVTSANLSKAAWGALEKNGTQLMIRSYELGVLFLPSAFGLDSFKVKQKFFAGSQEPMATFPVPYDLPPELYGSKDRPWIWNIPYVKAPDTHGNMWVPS

Target: Tyrosyl-DNA phosphodiesterase 1 (Homo sapiens, UniProt Q9NUW8)
Test: Inhibition of recombinant TDP1 (unknown origin) using 5'-32P-labeled N14Y DNA substrate incubated for 20 mins by PAGE analysis

In the case of O=C(O)C1=CC(=C(c2ccc(O)c(C(=O)O)c2)c2ccc(O)c(C(=O)O)c2)C=CC1=O [AURINTRICARBOXYLIC ACID], the IC50 is reported as 0.012 µM.
